Earlier results in patent US20030118652A1, “Methods and compositions for use of (S)-bisoprolol” (priority 2001, published 2003).

Conditions: following administration of racemic bisoprolol; (S)- versus (R)-bisoprolol

area under the plasma concentration-time curve: slightly higher
Compound: CC(C)NC[C@H](O)COc1ccc(COCCOC(C)C)cc1 [(S)-bisoprolol]
